Experimental data reported in PubChem BioAssay AID743398 (Broad Institute, 2014).
The entries are a selection whose mix differs from that of the whole data set. Activity calls are given as the source filed them. Cut-off read from the data, not from the text of the source: active = activation above about 30% (passing the limit was not always enough); inconclusive = no clear call, values can overlap the other calls.

Test: activation of beta-catenin signaling reporter – cell-based, plate reader, single point, primary screen (AID 743398);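 note: 0% = neutral control wells and 100% = positive control wells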
Conditions: Wnt/beta-catenin reporter cell assay, activator, at 9.35 µM, stronger effect = higher value

Q: Which activation does the source give for `CCC(=O)N(c1ccccc1)C1(COC)CCN(CCn2nnn(CC)c2=O)CC1` here?
A: inactive: -1.7%

Q: For `CCC(=O)N(c1ccccc1)C1(COC)CCN(CCc2cccs2)CC1`, which activation is on record?
A: inactive: 1.17%
